The target in this assay is Ba/F3 cells expressing Bcr-Abl T315I mutant (Homo sapiens, UniProt P00519, T315I, cells depend on it). The settings on record: read-out: T315I cell proliferation, 3 days.

Turning to `CN1CCN(Cc2ccc(NC(=O)c3ccc(Cl)c(C#Cc4cnc5ccccn45)c3)cc2C(F)(F)F)CC1`, the GI50 was below 1 µM. The figure for `Cc1ccc(C(=O)Nc2ccc(CN3CCCC3)c(C(F)(F)F)c2)cc1C#Cc1cnc2cnccn12` is below 1 µM.
